# scFv variants of Ab-14 (light chain) against a SARS-CoV-2 spike peptide

Target peptide (SARS-CoV-2 spike, HR2 region): PDVDLGDISGINAS

Each scFv is VH, three GGGGS repeats, VL, as in the parent Ab-14, and differs from it in the CDRs of the light chain only.
VH: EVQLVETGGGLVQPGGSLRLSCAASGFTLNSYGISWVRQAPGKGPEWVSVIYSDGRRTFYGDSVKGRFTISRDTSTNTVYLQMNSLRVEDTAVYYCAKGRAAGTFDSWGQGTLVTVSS
VL: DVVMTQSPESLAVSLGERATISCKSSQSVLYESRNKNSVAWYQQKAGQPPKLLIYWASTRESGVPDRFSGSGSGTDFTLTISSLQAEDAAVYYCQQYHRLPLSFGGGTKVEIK

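The starting antibody came from a phage panning campaign against this peptide. The variants were designed computationally from a first round of random CDR variants and then made and measured. Group labels follow the data file (En: ensemble of fine-tuned language models; GP: Gaussian process model; HC: hill climbing; Gen: genetic algorithm; Gibbs: Gibbs sampling; a sequence that several methods proposed may carry one label only). The scFvs were displayed on barcoded MATa yeast, the peptide on MATalpha yeast. Binding brings cells together so that they mate, and sequencing counts the barcode pairs among the diploids. Scores were corrected for input abundance and mapped to Kd with protein pairs of known affinity run in the same pool. There are six technical replicates.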

The whole VL of each variant is written out.
Variants here have more than six changes.
Kd is apparent (estimated from mating counts) and averaged on the log scale over replicates with a signal. Smaller is tighter.
Where no diploid with the target was found in any replicate, the entry reads "nd": below detection, most likely a poor binder, though not proof of it.
Of ten entries with the parent sequence, four were seen in most replicates (averages 2.2 nM to 240 nM), three in one and three in none, so single entries are noisy.
A sequence measured in both rounds can read differently, since the two assays cover different ranges.
The authors' rule: three or more of the six replicates give a measured affinity, fewer mean a poor binder.
Three control strains display no target. For all light chain designs, 4% of the pairings with them gave a signal, with a median of 430 nM and one signal in twenty below 38 nM, so weak values seen in few replicates may be background.

VL,group,Kd,replicates with signal
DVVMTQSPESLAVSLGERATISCKLTHVTFVLDRDKYSIAWYQQKAGQPPKLLIYDSERKMEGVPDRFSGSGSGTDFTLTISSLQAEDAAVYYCQQYNRLPLTFGGGTKVEIK,En_Gibbs,2.3 nM,6/6
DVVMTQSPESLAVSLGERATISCKLGQSVAMTSRIKNNVAWYQQKAGQPPKLLIYDLNERERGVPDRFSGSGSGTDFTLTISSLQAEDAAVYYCQQYDRLPLSFGGGTKVEIK,En_HC,2.2 nM,6/6
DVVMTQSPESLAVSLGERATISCKISWNMGETQRNKNSVAWYQQKAGQPPKLLIYEVSTVPSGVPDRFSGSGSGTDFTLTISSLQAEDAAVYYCQQYWRLPLSFGGGTKVEIK,En_HC,3.2 nM,6/6
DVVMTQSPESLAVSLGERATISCKIQQEGNYESRNKNSVAWYQQKAGQPPKLLIYSASTRCPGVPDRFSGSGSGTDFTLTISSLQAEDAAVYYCQQYHRLPLSFGGGTKVEIK,GP_Gibbs,950 pM,6/6
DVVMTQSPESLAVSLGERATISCKISQMVRVGSTHKNSIAWYQQKAGQPPKLLIYEEAKRADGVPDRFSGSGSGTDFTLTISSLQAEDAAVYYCQQYHRLPLAFGGGTKVEIK,En_Gen,nd,0/6
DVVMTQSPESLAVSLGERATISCALSQSMDMTSRNVNSVAWYQQKAGQPPKLLIYDLTTRMNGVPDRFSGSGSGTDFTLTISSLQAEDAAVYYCQQYHRLPLSFGGGTKVEIK,En_HC,2.1 nM,6/6
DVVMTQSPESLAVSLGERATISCKISGQYRYEQLSKNSIAWYQQKAGQPPKLLIYEAQQRLKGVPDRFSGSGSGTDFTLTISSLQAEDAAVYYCQQYHRLPLSFGGGTKVEIK,En_HC,3.6 nM,6/6
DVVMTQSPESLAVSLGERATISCIITQSVMAESRNKSNVAWYQQKAGQPPKLLIYNTSEREPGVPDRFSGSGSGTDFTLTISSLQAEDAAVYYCQQYDRLPLIFGGGTKVEIK,En_HC,13 nM,6/6
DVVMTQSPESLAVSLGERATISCKFSQSALYGERMKNSVAWYQQKAGQPPKLLIYNASQRLSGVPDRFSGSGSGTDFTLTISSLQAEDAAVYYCQQYHRLPLSFGGGTKVEIK,GP_Gibbs,4.6 nM,6/6
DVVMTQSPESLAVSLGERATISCHMSALTLMGSRVRNSVAWYQQKAGQPPKLLIYQMTTRENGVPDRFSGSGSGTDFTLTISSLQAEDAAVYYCQQYDRLPLAFGGGTKVEIK,En_Gen,8.9 nM,5/6
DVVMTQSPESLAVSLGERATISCKIGATLNMMMHKNNNVAWYQQKAGQPPKLLIYDLVTRENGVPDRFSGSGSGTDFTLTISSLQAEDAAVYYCQQYHRLPLSFGGGTKVEIK,En_Gen,1.4 nM,6/6
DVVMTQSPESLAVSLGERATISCMIAMEIGIEDSKWSAVAWYQQKAGQPPKLLIYSNSVRMSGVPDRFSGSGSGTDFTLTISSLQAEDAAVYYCQQYGRLPFSFGGGTKVEIK,En_Gibbs,nd,0/6
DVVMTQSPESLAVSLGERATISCTIQQMMSLFSQTINNVAWYQQKAGQPPKLLIYEVSLREKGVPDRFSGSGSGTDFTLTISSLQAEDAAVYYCQQYDRLPLSFGGGTKVEIK,En_Gen,9.9 nM,6/6
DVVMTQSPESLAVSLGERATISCKIRVHNLMFSQNESSIAWYQQKAGQPPKLLIYGMSVRSEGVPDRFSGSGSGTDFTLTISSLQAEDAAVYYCQQYYHLPLTFGGGTKVEIK,En_Gibbs,340 nM,5/6
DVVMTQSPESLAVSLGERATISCHLSFPWQSGHDSTHAVAWYQQKAGQPPKLLIYNDSTLMTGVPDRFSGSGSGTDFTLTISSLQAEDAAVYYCQHYNRLPLSFGGGTKVEIK,En_Gibbs,160 nM,1/6
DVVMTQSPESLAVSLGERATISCTISTMMRYESSLKNAIAWYQQKAGQPPKLLIYNAQTRESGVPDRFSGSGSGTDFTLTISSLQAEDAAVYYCQQYHRLPLSFGGGTKVEIK,En_HC,nd,0/6
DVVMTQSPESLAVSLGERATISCSMHPFDKAIGKGTNNIAWYQQKAGQPPKLLIYHVSVRASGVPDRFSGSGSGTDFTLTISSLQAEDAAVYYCQQYARLPLVFGGGTKVEIK,En_Gibbs,120 nM,6/6
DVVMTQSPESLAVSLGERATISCMLSDTVMQGSYYRNSVAWYQQKAGQPPKLLIYQESTRADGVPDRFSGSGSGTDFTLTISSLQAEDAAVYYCQQYHRLPLSFGGGTKVEIK,En_HC,1.2 nM,6/6

The first 3 variants above that were never detected:

VL,group,Kd,replicates with signal
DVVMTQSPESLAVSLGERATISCKISQMVRVGSTHKNSIAWYQQKAGQPPKLLIYEEAKRADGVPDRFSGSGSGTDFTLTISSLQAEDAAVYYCQQYHRLPLAFGGGTKVEIK,En_Gen,nd,0/6
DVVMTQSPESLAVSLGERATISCMIAMEIGIEDSKWSAVAWYQQKAGQPPKLLIYSNSVRMSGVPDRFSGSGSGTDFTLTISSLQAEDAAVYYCQQYGRLPFSFGGGTKVEIK,En_Gibbs,nd,0/6
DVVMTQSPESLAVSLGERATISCTISTMMRYESSLKNAIAWYQQKAGQPPKLLIYNAQTRESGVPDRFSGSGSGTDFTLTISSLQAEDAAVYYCQQYHRLPLSFGGGTKVEIK,En_HC,nd,0/6

Values reported by Li et al. 2023, doi:10.1038/s41467-023-39022-2 (FLAb copy).